Results published in PMC3116189, “Novel Natural Inhibitors of CYP1A2 Identified by in Silico and in Vitro Screening” (International Journal of Molecular Sciences, 2011).

The chains behind the UniProt entries cited, without tags or fusion partners.
UniProt P05177, whole entry: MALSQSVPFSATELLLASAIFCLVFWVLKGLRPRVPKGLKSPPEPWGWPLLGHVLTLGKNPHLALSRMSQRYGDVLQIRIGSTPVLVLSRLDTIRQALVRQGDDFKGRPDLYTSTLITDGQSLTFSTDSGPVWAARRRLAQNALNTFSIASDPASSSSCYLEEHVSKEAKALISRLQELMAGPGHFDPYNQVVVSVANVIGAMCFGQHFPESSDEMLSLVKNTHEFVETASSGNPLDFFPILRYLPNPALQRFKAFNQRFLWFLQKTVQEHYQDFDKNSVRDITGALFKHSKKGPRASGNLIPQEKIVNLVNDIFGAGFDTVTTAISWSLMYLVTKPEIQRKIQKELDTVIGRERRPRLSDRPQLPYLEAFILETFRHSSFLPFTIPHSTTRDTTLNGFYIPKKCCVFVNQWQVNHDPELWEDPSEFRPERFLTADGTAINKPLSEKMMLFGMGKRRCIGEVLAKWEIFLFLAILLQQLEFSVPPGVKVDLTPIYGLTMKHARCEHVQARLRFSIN

target: CYP1A2 (Homo sapiens, UniProt P05177); type: biochemical; details: 1 μM active ingredient, Rh CYP1A2-mediated phenacetin O-deethylation, test dataset of 202 herb ingredients
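Further: recombinant CYP1A2 incubated for 1 h at 37 °C, with the reaction started by an NADPH-generating system.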

Row | Substance | % of Control Indication Activity (Mean)
1 | Evodiamine | > 90%
2 | Hydroxysafflor yellow A | > 90%
3 | Ginkgolide C | > 90%
4 | Icariside II | > 90%
5 | Vitexin glucoside | > 90%
